Reference: article PMC4215230, “Incorporation of Pentraxin 3 into Hyaluronan Matrices Is Tightly Regulated and Promotes Matrix Cross-linking” (The Journal of Biological Chemistry, 2014)

Amino acid sequences for entries named in this document (tags omitted). Residues count along the entry.
UniProt P26022, 18-381: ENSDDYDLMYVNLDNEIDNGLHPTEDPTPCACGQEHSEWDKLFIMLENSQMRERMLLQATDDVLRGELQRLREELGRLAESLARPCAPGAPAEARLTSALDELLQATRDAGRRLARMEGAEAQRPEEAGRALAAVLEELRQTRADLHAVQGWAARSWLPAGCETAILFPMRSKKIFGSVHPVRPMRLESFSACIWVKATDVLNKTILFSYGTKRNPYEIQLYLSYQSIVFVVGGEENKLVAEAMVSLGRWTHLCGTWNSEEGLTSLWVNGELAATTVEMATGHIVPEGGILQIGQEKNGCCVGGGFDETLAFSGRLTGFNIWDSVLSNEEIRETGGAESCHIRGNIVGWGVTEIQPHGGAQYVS

Target: T1, Biotinylated PTX3 (human, UniProt P26022, NHS-PEG4-biotin on primary amines, on average 2 mol of biotin/mol of PTX3 protomer)
T1 construct: pentraxin 3 (PTX3), human, recombinant, biotinylated through primary amines; Immobilised on a streptavidin monolayer by its biotins, in a variety of orientations; also called b-PTX3; source: Chinese hamster ovary 3.5 cell line, purified, then modified with EZ-Link NHS-PEG4-Biotin
Experiment: spectroscopic ellipsometry; b-PTX3 immobilised on a streptavidin monolayer at a monomer surface density of 4.8 pmol/cm^2; Link_TSG6 or rhTSG-6 added at identical molar bulk concentrations, then buffer rinse; HEPES buffer pH 7.4; no HA
Conditions: both partners purified

- stoichiometry N: 4 TSG-6 binding sites per PTX3 octamer
B1: Full-length recombinant human TSG-6 (rhTSG-6) (natural protein, UniProt P98066 18-277, looked up)
chain: WGFKDGIFHNSIWLERAAGVYHREARSGKYKLTYAEAKAVCEFEGGHLATYKQLEAARKIGFHVCAAGWMAKGRVGYPIVKPGPNCGFGKTGIIDYGIRLNRSERWDAYCYNPHAKECGGVFTDPKQIFKSPGFPNEYEDNQICYWHIRLKYGQRIHLSFLDFDLEDDPGCLADYVEIYDSYDDVHGFVGRYCGDELPDDIISTGNVMTLKFLSDASVTAGGFQIKYVAMDPVSKSSQGKNTSTTSTGNKNFLAGRFSHL
notes: TSG-6 (secreted product of tumor necrosis factor-stimulated gene-6), human, full-length recombinant, 30.1 kDa; Link module and CUB module; also called full-length TSG-6; source: Drosophila Schneider 2 cells, purified
